Consider one compound from article PMC10611619, “[^99mTc]Tc-PentixaTec: development, extensive pre-clinical evaluation, and first human experience” (European Journal of Nuclear Medicine and Molecular Imaging, 2023).

Chains of the proteins cited; added tags and fusions are not shown.
UniProt P61073, whole entry: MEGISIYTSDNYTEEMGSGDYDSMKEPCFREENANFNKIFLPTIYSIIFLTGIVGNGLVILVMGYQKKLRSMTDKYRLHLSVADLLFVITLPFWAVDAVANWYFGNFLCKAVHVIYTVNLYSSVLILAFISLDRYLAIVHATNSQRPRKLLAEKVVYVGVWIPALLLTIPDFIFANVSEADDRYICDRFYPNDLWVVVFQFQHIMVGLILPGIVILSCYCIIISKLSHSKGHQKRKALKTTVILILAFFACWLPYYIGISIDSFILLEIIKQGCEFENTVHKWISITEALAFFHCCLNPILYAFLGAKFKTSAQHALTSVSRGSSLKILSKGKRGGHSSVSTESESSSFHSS

This test addresses human CXCR4 (hCXCR4) (Homo sapiens, UniProt P61073). Put plainly: Competitive binding to hCXCR4 (IC50), Jurkat cells, [^125I]FC-131 as radioligand. As to conditions: [^125I]FC-131 radioligand.

The structures appear in SMILES notation.

Broadly, the IC50 is the concentration that inhibits the measured activity by half. Low values mean greater potency in that assay, high ones weaker potency in that assay. Take `CN1C(=O)[C@@H](Cc2ccc(O)c(I)c2)NC(=O)CNC(=O)[C@H](Cc2ccc3ccccc3c2)NC(=O)[C@H](CCCNC(=N)N)NC(=O)[C@H]1CCCNC(=O)c1ccc(CNC(=O)CN2CCN(CC(=O)O)CCN(CC(=O)O)CCN(CC(=O)O)CC2)cc1` [^natLu-PentixaTher, metal not drawn, reference compound]: the IC50 stood at 14.6 ± 1 nM.
